From paper PMC6447837 (Cancer Science, 2019)

By UniProt entry, the sequences of proteins in these tests, tags left out. Where a name states a change or a piece, a line headed by the entry shows the natural chain unless it says otherwise.
UniProt P42685: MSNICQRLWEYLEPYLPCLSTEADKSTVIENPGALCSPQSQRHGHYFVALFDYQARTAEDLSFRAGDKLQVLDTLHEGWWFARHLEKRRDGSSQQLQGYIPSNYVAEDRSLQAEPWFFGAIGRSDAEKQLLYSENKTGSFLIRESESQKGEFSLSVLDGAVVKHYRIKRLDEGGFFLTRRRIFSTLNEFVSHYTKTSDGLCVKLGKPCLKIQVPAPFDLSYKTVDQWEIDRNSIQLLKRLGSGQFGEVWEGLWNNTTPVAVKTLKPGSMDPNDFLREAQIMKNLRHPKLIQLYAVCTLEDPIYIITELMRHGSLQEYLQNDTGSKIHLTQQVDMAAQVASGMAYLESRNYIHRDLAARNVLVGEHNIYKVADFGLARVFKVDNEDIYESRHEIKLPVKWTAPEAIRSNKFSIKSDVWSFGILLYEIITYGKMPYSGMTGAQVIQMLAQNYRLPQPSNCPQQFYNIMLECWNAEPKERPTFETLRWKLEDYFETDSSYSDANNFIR

Experiments:
[1] = tested on: Src; assay: Immunohistochemistry of xenograft tumor tissues; assay type: in vivo, NOD‐SCID mice; conditions: Aspc‐1 and Bxpc‐3 models; LY‐1816 and dasatinib 40 mg/kg/d p.o., gemcitabine 80 mg/kg/wk; IHC
[2] = molecular target: PTK5 (Homo sapiens, UniProt P42685); assay: Radiometric kinase IC50 assay; assay type: biochemical
[3] = tested on: Capan‐1; assay: MTT antiviability assay; conditions: Homo sapiens, CAPAN-1, 72 h

| Compound | phosphorylation of Src in tumor tissues [1] | IC50 [2] | IC50 [3] |
| --- | --- | --- | --- |
| Cc1nc(Nc2ncc(C(=O)Nc3c(C)cccc3Cl)s2)cc(N2CCN(CCO)CC2)n1 [dasatinib] | downregulated the phosphorylation of Src |  |  |
| Cc1ccc(NC(=O)c2ccc(C)c(C(F)(F)F)c2)cc1C#Cc1nn(C2CCC(O)CC2)c2ncnc(N)c12 (stereo not drawn) [LY‐1816, N‐(3‐((4‐amino‐1‐(4‐hydroxycyclohexyl)‐1H‐pyrazolo[3,4‐d]pyrimidin‐3‐yl)ethynyl)‐4‐methylphenyl)‐4‐methyl‐3‐(trifluoromethyl)benzamide] |  | 19 nM | 255 ± 26 nM |
